Assay [1] has as its target Kappa-type opioid receptor (Homo sapiens, UniProt P41145). Briefly: Displacement of [3H]naloxone from human kappa opioid receptor.
In another assay the target is Mu-type opioid receptor (Homo sapiens, UniProt P35372). Briefly: Displacement of [3H]naloxone from human mu opioid receptor.
The target of assay [2] is Delta-type opioid receptor (Homo sapiens, UniProt P41143). Briefly: Displacement of [3H]-naloxone from Opioid receptor delta 1.
In the next assay the target is Nociceptin receptor (Homo sapiens, UniProt P41146). Briefly: Displacement of [3H]-orphanin FQ from human OrphaninFQ (hOFQ) receptor.

Protein sequences, listed by entry. Tags and fused reporters are not part of them.
UniProt P41145, whole entry: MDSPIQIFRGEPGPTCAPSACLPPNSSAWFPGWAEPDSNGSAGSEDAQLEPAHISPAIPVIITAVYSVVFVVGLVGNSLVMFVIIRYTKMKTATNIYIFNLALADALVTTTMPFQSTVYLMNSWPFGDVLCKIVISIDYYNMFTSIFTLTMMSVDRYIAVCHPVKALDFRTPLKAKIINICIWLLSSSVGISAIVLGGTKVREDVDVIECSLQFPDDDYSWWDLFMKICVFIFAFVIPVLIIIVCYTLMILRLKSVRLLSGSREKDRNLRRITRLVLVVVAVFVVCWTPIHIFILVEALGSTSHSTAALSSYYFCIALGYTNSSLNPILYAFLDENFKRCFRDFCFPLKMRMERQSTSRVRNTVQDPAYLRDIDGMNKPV
UniProt P35372, whole entry: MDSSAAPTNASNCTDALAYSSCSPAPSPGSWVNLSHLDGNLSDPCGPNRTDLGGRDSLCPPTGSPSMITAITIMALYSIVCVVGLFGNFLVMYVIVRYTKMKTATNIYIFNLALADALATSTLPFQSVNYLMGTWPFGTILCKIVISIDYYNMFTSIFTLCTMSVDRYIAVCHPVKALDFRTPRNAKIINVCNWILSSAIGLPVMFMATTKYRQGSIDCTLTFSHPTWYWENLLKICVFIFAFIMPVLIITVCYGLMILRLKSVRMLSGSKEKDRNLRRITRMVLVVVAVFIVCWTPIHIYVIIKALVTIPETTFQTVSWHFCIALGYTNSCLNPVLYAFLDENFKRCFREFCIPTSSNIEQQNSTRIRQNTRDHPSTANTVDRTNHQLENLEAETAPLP
UniProt P41143, whole entry: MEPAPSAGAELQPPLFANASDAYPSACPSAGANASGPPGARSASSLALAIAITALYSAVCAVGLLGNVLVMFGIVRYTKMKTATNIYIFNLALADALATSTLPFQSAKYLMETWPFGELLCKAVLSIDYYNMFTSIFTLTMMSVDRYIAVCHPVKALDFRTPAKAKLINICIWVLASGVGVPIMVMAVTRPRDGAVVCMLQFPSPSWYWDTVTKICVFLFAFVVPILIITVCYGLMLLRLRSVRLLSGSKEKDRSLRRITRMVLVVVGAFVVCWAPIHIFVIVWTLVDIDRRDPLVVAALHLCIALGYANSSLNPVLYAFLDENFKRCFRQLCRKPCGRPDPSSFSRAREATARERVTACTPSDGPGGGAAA
UniProt P41146, whole entry: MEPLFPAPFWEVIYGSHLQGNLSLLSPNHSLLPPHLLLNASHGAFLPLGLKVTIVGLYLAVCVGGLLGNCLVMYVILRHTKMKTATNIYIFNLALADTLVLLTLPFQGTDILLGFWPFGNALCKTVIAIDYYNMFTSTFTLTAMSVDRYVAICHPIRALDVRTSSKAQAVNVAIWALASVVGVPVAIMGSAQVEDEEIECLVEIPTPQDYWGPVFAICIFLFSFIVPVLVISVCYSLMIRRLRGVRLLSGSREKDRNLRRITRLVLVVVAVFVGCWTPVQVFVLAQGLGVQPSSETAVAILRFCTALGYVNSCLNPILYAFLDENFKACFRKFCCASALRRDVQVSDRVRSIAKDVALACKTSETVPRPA

Consider `O=C1NCN(c2ccccc2)C12CCN([C@@H]1Cc3cccc4cccc1c34)CC2`, for which the Log Ki was -7.7 in assay [1], -8.4 on Mu-type opioid receptor and -7 in assay [2].
For the molecule `Cc1ccc(N2CNC(=O)C23CCN(C2Cc4cccc5cccc2c45)CC3)cc1` (stereo not drawn), the Log Ki in assay [1] was -6.7; on Mu-type opioid receptor, -7.3; on Nociceptin receptor, -8.3; in assay [2], below -6.3.
`O=C1NCN(c2ccccc2)C12CCN([C@H]1Cc3cccc4cccc1c34)CC2`: the Log Ki is -7.6 in assay [1], -7.9 at Mu-type opioid receptor and below -6.3 in assay [2].
Regarding `O=C1NCN(c2ccccc2)C12CCN(C1Cc3cccc4cccc1c34)CC2` (stereo not drawn), the figures for the Log Ki (in assay [1]; at Mu-type opioid receptor; in assay [2]) were -7.6, -8.2 and -6.6, respectively.

For the origin of these results see ChEMBL document CHEMBL1131838, “8-acenaphthen-1-yl-1-phenyl-1,3,8-triaza-spiro[4.5]decan-4-one derivatives as orphanin FQ receptor agonists” (Bioorg Med Chem Lett, 1999).
